Data on two compounds can be found in ChEMBL document CHEMBL1140296, “Anilinodialkoxyquinazolines: screening epidermal growth factor receptor tyrosine kinase inhibitors for potential tumor imaging probes” (J Med Chem, 2005).

Protein sequences, listed by entry. Tags and fused reporters are not part of them.
UniProt P00533, whole entry: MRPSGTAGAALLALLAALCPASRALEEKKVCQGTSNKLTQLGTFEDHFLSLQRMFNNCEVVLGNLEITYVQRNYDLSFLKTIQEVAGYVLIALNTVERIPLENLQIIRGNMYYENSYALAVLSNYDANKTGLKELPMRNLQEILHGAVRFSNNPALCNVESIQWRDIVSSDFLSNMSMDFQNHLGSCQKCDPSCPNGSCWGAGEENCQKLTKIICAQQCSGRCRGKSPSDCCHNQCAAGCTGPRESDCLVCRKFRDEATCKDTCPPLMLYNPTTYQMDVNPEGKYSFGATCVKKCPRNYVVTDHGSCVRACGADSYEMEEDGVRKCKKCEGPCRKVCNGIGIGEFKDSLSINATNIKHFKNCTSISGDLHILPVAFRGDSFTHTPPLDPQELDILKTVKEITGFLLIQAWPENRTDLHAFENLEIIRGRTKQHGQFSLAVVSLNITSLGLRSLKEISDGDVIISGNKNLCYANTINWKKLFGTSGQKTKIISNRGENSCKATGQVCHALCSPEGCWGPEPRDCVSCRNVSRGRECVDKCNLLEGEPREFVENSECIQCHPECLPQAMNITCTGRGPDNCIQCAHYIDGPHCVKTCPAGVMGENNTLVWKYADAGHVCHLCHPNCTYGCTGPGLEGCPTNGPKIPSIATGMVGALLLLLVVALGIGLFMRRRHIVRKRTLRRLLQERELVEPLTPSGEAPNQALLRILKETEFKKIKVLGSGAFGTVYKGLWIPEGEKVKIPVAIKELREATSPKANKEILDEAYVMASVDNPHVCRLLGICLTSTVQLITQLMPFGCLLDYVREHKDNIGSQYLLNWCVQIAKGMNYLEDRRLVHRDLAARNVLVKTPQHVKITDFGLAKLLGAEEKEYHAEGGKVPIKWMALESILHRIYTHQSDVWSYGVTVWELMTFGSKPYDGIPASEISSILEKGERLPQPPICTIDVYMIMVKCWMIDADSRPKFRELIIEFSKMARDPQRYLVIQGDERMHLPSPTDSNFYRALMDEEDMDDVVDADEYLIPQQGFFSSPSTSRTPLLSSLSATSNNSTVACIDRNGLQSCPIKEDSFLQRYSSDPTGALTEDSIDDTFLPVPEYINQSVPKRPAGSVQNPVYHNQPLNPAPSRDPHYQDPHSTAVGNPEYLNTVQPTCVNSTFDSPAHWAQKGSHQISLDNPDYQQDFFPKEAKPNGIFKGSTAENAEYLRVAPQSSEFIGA

In assay [1] the target is T1, Epidermal growth factor receptor (Homo sapiens, UniProt P00533). Put plainly: Displacement of [125I]4-(3-iodoanilino)-6,7-dimethoxyquinazoline from EGFR tyrosine kinase in human A431 cell membranes. On the set-up: species or system A-431.
The next assay deals with MCF7. Put plainly: Inhibition of DNA synthesis in EGF-independent human MCF7 cells assessed as 3H]thymidine incorporation. The class given is functional, cell-based. The following applies: MCF7, 48 h. A general note: Uptake of a labelled nucleoside into DNA is a usual measure of proliferation.
Assay [2] concerns the target T1, Epidermal growth factor receptor. Put plainly: Inhibition of human EGFR tyrosine kinase phosphorylation expressed in mouse BaF3 cells. In kind it is functional, cell-based.

Structures are written as SMILES.

With `COc1cc2ncnc(Nc3cccc(Cl)c3)c2cc1OC`, the IC50 (in general, the concentration that inhibits the measured activity by half) in assay [1] amounted to 0.00126 µM; in the assay with MCF7, 1.98 µM; in assay [2], 0.0008 µM.

In the case of `COc1cc2ncnc(Nc3cccc(F)c3)c2cc1OC`, the half-maximal inhibitory concentration (IC50) stood at 0.0319 µM in assay [1], 1.96 µM with MCF7 and 0.0063 µM in assay [2].
